{
  "sequences": {"note": "Sequences of proteins named here, by UniProt entry; tags and fusion partners are left off.", "UniProt Q07817, whole entry": "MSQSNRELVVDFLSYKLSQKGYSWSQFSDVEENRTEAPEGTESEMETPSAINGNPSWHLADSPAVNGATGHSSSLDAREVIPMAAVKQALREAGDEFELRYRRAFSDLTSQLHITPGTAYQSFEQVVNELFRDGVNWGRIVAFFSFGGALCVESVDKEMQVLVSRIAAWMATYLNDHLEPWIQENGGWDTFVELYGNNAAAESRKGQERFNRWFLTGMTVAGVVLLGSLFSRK"},
  "source": "patent EP2768830B1",
  "about": "“APOPTOSIS-INDUCING AGENTS FOR THE TREATMENT OF CANCER AND IMMUNE AND AUTOIMMUNE DISEASES” (AbbVie Inc., priority 2011, dated 2013)",
  "key": {"[1]": {"conditions": "oral bioavailability, Sprague-Dawley rats, p.o. dose 5 mpk, 10% DMSO in PEG-400"}, "GST-Bcl-xL [2]": {"target": "T1, GST-Bcl-xL (Homo sapiens, UniProt Q07817)", "conditions": "read-out: TR-FRET binding Bcl-xL Ki"}, "GST-Bcl-xL [3]": {"target": "T1, GST-Bcl-xL", "assay": "biochemical"}, "in vivo": {"assay": "in vivo", "conditions": "rat, po"}, "[4]": {"test_system": "mouse FL5.12 cells transfected with Bcl-XL", "assay": "FL5.12 cellular assay (cell viability, CellTiter-Glo);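 further: each EC50 determination derived from duplicate measurements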", "type": "cell-based", "conditions": "IL-3-depleted, 3% FBS assay media, 24 hours, read-out: FL5.12 Bcl-xL, - IL3, EC 50"}},
  "note": "Like-named read-outs stand apart in the source and are kept apart here.",
  "data": [
    {"molecule": "Cc1c(-c2ccc(N3CCc4cccc(C(=O)Nc5nc6ccccc6s5)c4C3)nc2C(=O)O)cnn1Cc1ccccc1", "note": "[Example 20, 6-[8-(1,3-benzothiazol-2-ylcarbamoyl)-3,4-dihydroisoquinolin-2(1H)-yl]-3-(1-benzyl-5-methyl-1H-pyrazol-4-yl)pyridine-2-carboxylic acid]", "values": [
      {"measurement": "F (%), dose", "setting": "[1]", "result": "17, 5 mpk %"}
    ]},
    {"molecule": "Cc1c(-c2ccc(N3CCc4cccc(C(=O)Nc5nc6ccccc6s5)c4C3)nc2C(=O)O)cnn1CC1CCCCC1", "note": "[Example 43, 6-[8-(1,3-benzothiazol-2-ylcarbamoyl)-3,4-dihydroisoquinolin-2(1H)-yl]-3-[1-(cyclohexylmethyl)-5-methyl-1H-pyrazol-4-yl]pyridine-2-carboxylic acid]", "values": [
      {"measurement": "Ki", "setting": "GST-Bcl-xL [2]", "result": 0.9, "unit": "nM"}
    ]},
    {"molecule": "Cc1c(-c2ccc(N3CCc4cccc(C(=O)Nc5nc6ccccc6s5)c4C3)nc2C(=O)O)cnn1C[C@@H]1CC[C@@H]2C[C@H]1C2(C)C", "note": "[Example 85, 6-[8-(1,3-benzothiazol-2-ylcarbamoyl)-3,4-dihydroisoquinolin-2(1H)-yl]-3-(1-{[(1R,2R,5R)-6,6-dimethylbicyclo[3.1.1]hept-2-yl]methyl}-5-methyl-1H-pyrazol-4-yl)pyridine-2-carboxylic acid]", "values": [
      {"measurement": "Ki", "setting": "GST-Bcl-xL [3]", "result": 2, "unit": "nM"}
    ]},
    {"molecule": "Cc1c(CC2CCCCC2)cccc1-c1ccc(N2CCc3cccc(C(=O)Nc4nc5ccccc5s4)c3C2)nc1C(=O)O", "note": "[Example 107, 6-[8-(1,3-benzothiazol-2-ylcarbamoyl)-3,4-dihydroisoquinolin-2(1H)-yl]-3-[3-(cyclohexylmethyl)-2-methylphenyl]pyridine-2-carboxylic acid]", "values": [
      {"measurement": "Ki", "setting": "GST-Bcl-xL [2]", "result": 0.2, "unit": "nM"},
      {"measurement": "bioavailability", "setting": "in vivo; plasma, 5 mg/kg", "result": 14, "unit": "%"}
    ]},
    {"molecule": "O=C(Nc1nc2ccccc2s1)c1cccc2c1CN(c1ccc(-c3ccn(Cc4ccccc4)c3)c(C(=O)O)n1)CC2", "note": "[Example 125, 6-[8-(1,3-benzothiazol-2-ylcarbamoyl)-3,4-dihydroisoquinolin-2(1H)-yl]-3-(1-benzyl-1H-pyrrol-3-yl)pyridine-2-carboxylic acid]", "values": [
      {"measurement": "Ki", "setting": "GST-Bcl-xL [2]", "result": 0.3, "unit": "nM"}
    ]},
    {"molecule": "Cc1c(-c2ccc(N3CCc4cccc(C(=O)Nc5nc6ccccc6s5)c4C3)nc2C(=O)O)cc(C#N)n1Cc1ccccc1", "note": "[Example 129, 6-[8-(1,3-benzothiazol-2-ylcarbamoyl)-3,4-dihydroisoquinolin-2(1H)-yl]-3-(1-benzyl-5-cyano-2-methyl-1H-pyrrol-3-yl)pyridine-2-carboxylic acid]", "values": [
      {"measurement": "bioavailability", "setting": "in vivo; plasma, 5 mg/kg", "result": 17, "unit": "%"}
    ]},
    {"molecule": "Cc1c(-c2ccc(N3CCc4cccc(C(=O)Nc5nc6ccccc6s5)c4C3)nc2C(=O)O)cc(C#N)n1CC1CCCCC1", "note": "[Example 130, 6-[8-(1,3-benzothiazol-2-ylcarbamoyl)-3,4-dihydroisoquinolin-2(1H)-yl]-3-[5-cyano-1-(cyclohexylmethyl)-2-methyl-1H-pyrrol-3-yl]pyridine-2-carboxylic acid]", "values": [
      {"measurement": "bioavailability", "setting": "in vivo; plasma, 5 mg/kg", "result": 32, "unit": "%"}
    ]},
    {"molecule": "Cc1c(-c2ccc(N3CCc4cccc(C(=O)Nc5nc6ccccc6s5)c4C3)nc2C(=O)O)cc(C#N)n1CC1(N2CCCCC2)CCCCC1", "note": "[Example 131, 6-[8-(1,3-benzothiazol-2-ylcarbamoyl)-3,4-dihydroisoquinolin-2(1H)-yl]-3-(5-cyano-2-methyl-1-{[1-(piperidin-1-yl)cyclohexyl]methyl}-1H-pyrrol-3-yl)pyridine-2-carboxylic acid]", "values": [
      {"measurement": "bioavailability", "setting": "in vivo; plasma, 5 mg/kg", "result": 11, "unit": "%"}
    ]},
    {"molecule": "COCCC1(Cn2ncc(-c3ccc(N4CCc5cccc(C(=O)Nc6nc7ccccc7s6)c5C4)nc3C(=O)O)c2C)CCCCCC1", "note": "[Example 134, 6-[8-(1,3-benzothiazol-2-ylcarbamoyl)-3,4-dihydroisoquinolin-2(1H)-yl]-3-(1-{[1-(2-methoxyethyl)cycloheptyl]methyl}-5-methyl-1H-pyrazol-4-yl)pyridine-2-carboxylic acid]", "values": [
      {"measurement": "bioavailability", "setting": "in vivo; plasma, 5 mg/kg", "result": 50, "unit": "%"}
    ]},
    {"molecule": "COCCC1(Cn2ncc(-c3ccc(N4CCc5cccc(C(=O)Nc6nc7ccccc7s6)c5C4)nc3C(=O)O)c2C)CCCC(C)(C)C1", "note": "(centres unmarked) [Example 146, 6-[8-(1,3-benzothiazol-2-ylcarbamoyl)-3,4-dihydroisoquinolin-2(1H)-yl]-3-(1-{[1-(2-methoxyethyl)-3,3-dimethylcyclohexyl]methyl}-5-methyl-1H-pyrazol-4-yl)pyridine-2-carboxylic acid]", "values": [
      {"measurement": "bioavailability", "setting": "in vivo; plasma, 5 mg/kg", "result": 16, "unit": "%"}
    ]},
    {"molecule": "COCCCC1(Cn2ncc(-c3ccc(N4CCc5cccc(C(=O)Nc6nc7ccccc7s6)c5C4)nc3C(=O)O)c2C)CCCCCC1", "note": "[Example 147, 6-[8-(1,3-benzothiazol-2-ylcarbamoyl)-3,4-dihydroisoquinolin-2(1H)-yl]-3-(1-{[1-(3-methoxypropyl)cycloheptyl]methyl}-5-methyl-1H-pyrazol-4-yl)pyridine-2-carboxylic acid]", "values": [
      {"measurement": "bioavailability", "setting": "in vivo; plasma, 5 mg/kg", "result": 37, "unit": "%"}
    ]},
    {"molecule": "COCCC1(Cn2ncc(-c3ccc(N4CCc5cccc(C(=O)Nc6nc7ccccc7s6)c5C4)nc3C(=O)NS(C)(=O)=O)c2C)CCCCCC1", "note": "[Example 148, N-(1,3-benzothiazol-2-yl)-2-{5-(1-{[1-(2-methoxyethyl)cycloheptyl]methyl}-5-methyl-1H-pyrazol-4-yl)-6-[(methylsulfonyl)carbamoyl]pyridin-2-yl}-1,2,3,4-tetrahydroisoquinoline-8-carboxamide]", "values": [
      {"measurement": "bioavailability", "setting": "in vivo; plasma, 5 mg/kg", "result": 18, "unit": "%"}
    ]},
    {"molecule": "COCCOC1(Cn2ncc(-c3ccc(N4CCc5cccc(C(=O)Nc6nc7ccccc7s6)c5C4)nc3C(=O)O)c2C)CCCCCC1", "note": "[Example 151, 6-[8-(1,3-benzothiazol-2-ylcarbamoyl)-3,4-dihydroisoquinolin-2(1H)-yl]-3-(1-{[1-(2-methoxyethoxy)cycloheptyl]methyl}-5-methyl-1H-pyrazol-4-yl)pyridine-2-carboxylic acid]", "values": [
      {"measurement": "bioavailability", "setting": "in vivo; in vivo, 1 mg/kg", "result": 30, "unit": "%"}
    ]},
    {"molecule": "Cc1c(-c2ccc(N3CCc4cccc(C(=O)Nc5nc6ccccc6s5)c4C3)nc2C(=O)O)cnn1CC1CCCCO1", "note": "(centres unmarked) [Example 154, 6-[8-(1,3-benzothiazol-2-ylcarbamoyl)-3,4-dihydroisoquinolin-2(1H)-yl]-3-[5-methyl-1-(tetrahydro-2H-pyran-2-ylmethyl)-1H-pyrazol-4-yl]pyridine-2-carboxylic acid]", "values": [
      {"measurement": "bioavailability", "setting": "in vivo; in vivo, 1 mg/kg", "result": 22, "unit": "%"}
    ]},
    {"molecule": "Cc1c(-c2ccc(N3CCc4cccc(C(=O)Nc5nc6ccccc6s5)c4C3)nc2C(=O)O)cccc1N(C)c1ccccc1", "note": "[Example 156, 6-[8-(1,3-benzothiazol-2-ylcarbamoyl)-3,4-dihydroisoquinolin-2(1H)-yl]-3-{2-methyl-3-[methyl(phenyl)amino]phenyl}pyridine-2-carboxylic acid]", "values": [
      {"measurement": "bioavailability", "setting": "in vivo; in vivo, 1 mg/kg", "result": 39, "unit": "%"}
    ]},
    {"molecule": "COC1(Cn2ncc(-c3ccc(N4CCc5cccc(C(=O)Nc6nc7ccccc7s6)c5C4)nc3C(=O)O)c2C)CCCC(C)(C)C1", "note": "(centres unmarked) [Example 157, 6-[8-(1,3-benzothiazol-2-ylcarbamoyl)-3,4-dihydroisoquinolin-2(1H)-yl]-3-{1-[(1-methoxy-3,3-dimethylcyclohexyl)methyl]-5-methyl-1H-pyrazol-4-yl}pyridine-2-carboxylic acid]", "values": [
      {"measurement": "bioavailability", "setting": "in vivo; in vivo, 1 mg/kg", "result": 30, "unit": "%"}
    ]},
    {"molecule": "COCCOC1(Cn2ncc(-c3ccc(N4CCc5cccc(C(=O)Nc6nc7ccccc7s6)c5C4)nc3C(=O)O)c2C)CCCC(C)(C)C1", "note": "(centres unmarked) [Example 180, 6-[8-(1,3-benzothiazol-2-ylcarbamoyl)-3,4-dihydroisoquinolin-2(1H)-yl]-3-(1-{[1-(2-methoxyethoxy)-3,3-dimethylcyclohexyl]methyl}-5-methyl-1H-pyrazol-4-yl)pyridine-2-carboxylic acid]", "values": [
      {"measurement": "Ki", "setting": "GST-Bcl-xL [3]", "result": "< 0.1", "unit": "nM"},
      {"measurement": "EC50", "setting": "[4]", "result": "< 0.1", "unit": "nM"}
    ]},
    {"molecule": "CN(c1cccc(-c2ccc(N3CCc4cccc(C(=O)Nc5nc6ccccc6s5)c4C3)nc2C(=O)O)c1C#N)S(=O)(=O)C1CCCCC1", "note": "[Example 181, 6-[8-(1,3-benzothiazol-2-ylcarbamoyl)-3,4-dihydroisoquinolin-2(1H)-yl]-3-{2-cyano-3-[(cyclohexylsulfonyl)(methyl)amino]phenyl}pyridine-2-carboxylic acid]", "values": [
      {"measurement": "Ki", "setting": "GST-Bcl-xL [2]", "result": "< 0.1", "unit": "nM"}
    ]}
  ]
}
